In patent publication US20260335307A1, “ANTIMICROBIAL COMBINATIONS” (Helperby Therapeutics Limited, priority 2022, published 2026):

System: KPC (Klebsiella pneumoniae carbapenemase) producing K. pneumoniae
Assay: Chequerboard assay (percentage kill from OD600, MIC and FIC) of 4-mer combination against KPC producing K. pneumoniae
Assay type: cell-based
Conditions: Example 4, backbone ceftazidime + colistin; drug alone
From the text: Synergy is not predictable or expected when two or more actives are used in combination. […] One of the ways to assess whether synergy has been observed is to use the “chequerboard” technique. This is a well-accepted method that leads to the generation of a value called the fractional inhibitory concentration index (FICI). Orhan et al., J. Clin. Microbiol. 2005, 43(1):140 describes the chequerboard method and analysis in the paragraph bridging pages 140-141, and explains that the FICI value is a ratio of the sum of the MIC (Minimum Inhibitory Concentration) level of each individual component alone and in the mixture.
FICI or fractional inhibitory concentration index is the sum of the FICs of each antimicrobial when used in combination. […]
In this method, two antibiotics were “fixed” as part of a backbone whilst the two other antibiotics were varied over a doubling concentration scale beginning at the MIC (×1) for the effective dose in monotherapy against the organism being tested. The ΣFIC was then calculated as shown below. […]
Synergy can be expressed as “ΣFIC≤0.25×n”. […]
The bacteria were obtained from Ninewells Hospital and Medical School in Dundee, Scotland. […] The bacteria were measured for OD600 and readings of <0.25 were returned to the incubator. […]

Compound: CC(C)(O/N=C(\C(=O)N[C@@H]1C(=O)N2C(C(=O)[O-])=C(C[n+]3ccccc3)CS[C@H]12)c1csc(N)n1)C(=O)O [Ceftazidime]
- MIC Monotherapy (X): 32
